The results in this text go back to paper PMC10491595, “Activation of the integrated stress response by inhibitors of its kinases” (Nature Communications, 2023).

This assay addresses T1, GCN2 (Homo sapiens, UniProt Q9P2K8).
T1 sequence (Q9P2K8 192-1024): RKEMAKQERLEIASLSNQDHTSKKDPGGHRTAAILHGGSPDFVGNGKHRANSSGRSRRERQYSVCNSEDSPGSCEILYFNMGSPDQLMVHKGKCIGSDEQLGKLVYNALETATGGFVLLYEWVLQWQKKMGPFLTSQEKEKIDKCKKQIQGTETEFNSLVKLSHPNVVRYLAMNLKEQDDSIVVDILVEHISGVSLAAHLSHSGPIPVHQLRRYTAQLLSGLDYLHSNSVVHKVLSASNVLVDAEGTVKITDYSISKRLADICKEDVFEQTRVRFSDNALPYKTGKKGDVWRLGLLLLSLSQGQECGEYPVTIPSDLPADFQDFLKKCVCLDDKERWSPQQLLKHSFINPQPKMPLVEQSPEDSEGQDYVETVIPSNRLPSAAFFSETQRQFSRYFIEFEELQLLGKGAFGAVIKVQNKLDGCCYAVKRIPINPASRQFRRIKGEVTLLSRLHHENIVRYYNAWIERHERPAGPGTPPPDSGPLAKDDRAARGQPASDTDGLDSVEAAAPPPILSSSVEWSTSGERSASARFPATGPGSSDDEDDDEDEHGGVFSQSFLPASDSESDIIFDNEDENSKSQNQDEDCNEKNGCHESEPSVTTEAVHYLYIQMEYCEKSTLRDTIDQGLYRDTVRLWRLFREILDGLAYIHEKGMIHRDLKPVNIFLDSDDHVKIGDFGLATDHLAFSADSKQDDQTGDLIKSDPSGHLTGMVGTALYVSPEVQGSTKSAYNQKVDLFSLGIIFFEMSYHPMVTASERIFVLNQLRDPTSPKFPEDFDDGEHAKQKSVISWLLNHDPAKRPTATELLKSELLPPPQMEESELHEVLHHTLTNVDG
Also noted: gene EIF2AK4.

For `CCOc1cc2ncc(C#N)c(Nc3ccc(OCc4ccccn4)c(Cl)c3)c2cc1NC(=O)/C=C/CN(C)C` [Neratinib], the “in vitro kinase assay with ATP titration, 1 μM compound; raised apparent ATP aff” value is ~ 1 μM.
